# The list is not random: actives were taken first. Their share in the collection is about 1.8%.
# DENV2 CPE: DENV2-induced cell death inhibition; DENV2-infected cells, cytopathic effect rescue, plate reader; CPE inhibition, % at 9.99 µM; 350,000 tested, 1.7% active; AID 651640; in the data active = CPE inhibition above about 20%, passing the limit was not always enough; inconclusive = no clear call, values can overlap the other calls; tested in BHK-21 cells;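 note: 0% = median of neutral control wells and 100% = median of positive control wells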
# Cneo AK release: Cryptococcus neoformans lysis via adenylate kinase release; C. neoformans lysis, adenylate kinase release luminescence, 4 h; normalised: neutral wells 0, clomiphene wells 100; AID 651654; lysis activity, % at 15 µM; 360,000 tested, 0.2% active;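 active = mean lysis activity across replicates of at least 80%, whatever share of replicates individually reach that level; inactive = mean lysis activity below 80%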
#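 Assay system: C. neoformans cells. Amount: yeast cell density of 5 × 10^6 cells/mL. Technique: AK luminescence. Buffer or medium: YPD. Times: static 4 h at 37 °C with compound, 1 h detection. Dosing: single-point compound dose. Read-out: lysis from increased AK signal.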
# Yeast UUG start: modulators of yeast start codon fidelity, primary screen, whole organism, S. cerevisiae, single point, plate reader; S. cerevisiae UUG-firefly luciferase reporter, luminescence/redox ratio; activity score, % at 18.7 µM; actives 0.13% (n = 350,000); AID 602363, 2012;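 active = replicate mean at a twofold rise or more, about +100% in these data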;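 also: firefly luciferase made from a UUG start codon reports start codon fidelity; reporter light over untreated wells divided by growth signal over untreated wells; some hits fall short of that in this replicate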
# E-sel inducer: E-selectin induction on HUVECs | HUVEC E-selectin immunofluorescence imaging; normalized: neutral wells 0, TNF-alpha wells 100 | activation, % at 7.58 µM | 260,000 tested, 0.37% active;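 active = mean E-selectin-positive cell signal at least 10% of the positive control, reached in at least 60% of replicates, without over 20% cell loss; inconclusive = no rule given, readout overlaps actives, possibly toxicity-flagged; inactive = the rest, including those meeting only one limit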
#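 material = human umbilical vein endothelial cells (HUVEC), E-selectin induction | quantity = 3,000 cells/well | medium = EGM-2 growth medium on 0.1% gelatin-coated wells | technique = immunofluorescence imaging | read-out basis = % PE-positive cells | control set = TNF-alpha positive control, DMSO neutral control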
# Active calls of the source: *; ? = inconclusive; . = no result given.
# Second line of a record: DENV2 CPE | Cneo AK release | Yeast UUG start | E-sel inducer
(1) COC(=O)[C@]12CCCCC=C1N(Cc1cccc3ccccc13)C(=O)[C@H](CC(=O)NCC13CC4CC(CC(C4)C1)C3)C2
  47* | . | . | 0
(2) COC(=O)C[C@H]1C[C@@H]2c3cc(NC(=O)C4CCC4)ccc3O[C@@H]2[C@@H](CO)O1
  -4 | 2 | -14 | 0
(3) CN(CC(=O)Nc1cccc(F)c1)C(=O)c1ccccc1CCc1ccccc1
  69* | 0 | -2 | .
(4) COc1cccc(NC(=O)CN(C)C(=O)CSc2nc3ccccc3s2)c1
  . | . | . | 1
(5) CN(CC(=O)Nc1cccc(F)c1)C(=O)CSc1nc2ccccc2s1
  61* | . | . | 2
(6) CCC(=O)N(C)C[C@H]1Oc2cc(C#CC3CC3)ccc2S(=O)(=O)N([C@H](C)CO)C[C@@H]1C
  -5 | -1 | 30 | 0
(7) CC(=O)c1c(C)[nH]c(C(=O)NNC(=O)COc2cc(C)cc(C)c2)c1C
  33* | -1 | -11 | 0
(8) COC(=O)C1=C[C@@H](C(=O)OC)[C@@H]2C3=C(C(=O)[C@@]2(C)NC(=O)c2ccccc2)[C@H](C)C(C(=O)OC)=C(C(=O)OC)[C@@H]3C1
  24* | -1 | 4 | 0
(9) COC(=O)C1=C[C@@H](C(=O)OC)[C@@H]2C3=C(C(=O)[C@@]2(C)NC(=O)c2ccccc2)[C@H](C)n2c(=O)n(C)c(=O)n2[C@@H]3C1
  0 | 3 | -3 | 0
(10) C[C@@H]1CN([C@@H](C)CO)C(=O)CCCn2cc(nn2)CO[C@@H]1CN(C)C(=O)Nc1ccccc1F
  . | . | . | 0
(11) CO[C@@H]1CN(C)C(=O)c2cc(NC(C)=O)ccc2OC[C@H](C)N(CCc2ccccc2)C[C@H]1C
  12 | -6 | 5 | 1
(12) Cc1ccc(-n2ncc3c2CCCC3NC(=O)CCc2c(C)noc2C)cc1C (centres undefined)
  64* | -2 | -15 | .
(13) C[C@@H]1CN([C@@H](C)CO)C(=O)Cc2cc(NC(=O)Cc3cn(C)c4ccccc34)ccc2O[C@@H]1CN(C)S(=O)(=O)c1ccccc1
  -10 | 0 | -6 | 0
(14) CNC(=O)C[C@@H]1CC[C@H]2[C@@H](COC[C@H](O)CN2C(=O)Nc2ccc3c(c2)OCO3)O1
  2 | 89* | . | 0
(15) CNC(=O)C[C@@H]1CC[C@@H]2[C@H](COC[C@@H](O)CN2C(=O)Nc2ccc3c(c2)OCO3)O1
  0 | 113* | . | 0
(16) CCCNC(=O)C[C@@H]1CC[C@H]2[C@@H](COC[C@H](O)CN2C(=O)Nc2ccc3c(c2)OCO3)O1
  1 | -1 | -12 | 0
(17) CCNC(=O)C[C@H]1CC[C@@H]2[C@H](COC[C@@H](O)CN2C(=O)Nc2ccc3c(c2)OCO3)O1
  -3 | -7 | 1 | 0
(18) CCCNC(=O)N1[C@H](CNC(C)=O)[C@@H](c2ccccc2)[C@@H]1CO
  30* | -1 | -11 | 0
(19) CCCNC(=O)N1[C@@H](CO)[C@@H](c2ccccc2)[C@@H]1CNC(C)=O
  -6 | 1 | -5 | 0
(20) CCCNC(=O)N1[C@@H](CO)[C@H](c2ccccc2)[C@@H]1CNC(=O)c1ccc(F)cc1
  . | 0 | 4 | 0
(21) CCCNC(=O)N1[C@H](CO)[C@H](c2ccccc2)[C@@H]1CNC(=O)c1ccc(F)cc1
  104* | . | 3 | 0
(22) CCCNC(=O)N1[C@@H](CO)[C@@H](c2ccc(-c3ccccc3)cc2)[C@@H]1CNC(C)=O
  -15 | 88* | 20 | 0
(23) CCc1ccc(NC(=O)c2cc(C)nn2-c2ccccc2)cc1
  -3 | -1 | -1 | 7
(24) CCOC(=O)c1cccc(NC(=O)c2cc(C)nn2-c2ccccc2)c1
  0 | 0 | -20 | 41*
(25) CCc1nc2ccc(C(=O)N3CCCC(C(N)=O)C3)cn2c1N(C=O)CC (centres undefined)
  27* | 2 | -19 | 2
(26) CC(=O)N1CC(=O)N2[C@H](CO)[C@@H](c3ccc(C#Cc4cccnc4)cc3)[C@@H]2C1
  26* | . | . | 0
(27) CC(=O)N1CC(=O)N2[C@H](C1)[C@@H](c1ccc(C#Cc3cccnc3)cc1)[C@@H]2CO
  1 | . | . | 0
(28) COCC(=O)N1CCCCN2[C@H](C1)[C@@H](c1ccc(C#Cc3cccnc3)cc1)[C@@H]2CO
  23* | -2 | -6 | 0
(29) COCC(=O)N1CCCCN2[C@H](CO)[C@@H](c3ccc(C#Cc4cccnc4)cc3)[C@H]2C1
  32* | 1 | -3 | 0
(30) CN(C)CC(=O)N1CCCCN2[C@H](CO)[C@H](c3ccc(-c4cccnc4)cc3)[C@@H]2C1
  22* | -2 | -18 | 0

# Among those listed so far, 4 have sulfur.
# Second line of a record: DENV2 CPE | Cneo AK release | Yeast UUG start | E-sel inducer
(4) COc1cccc(NC(=O)CN(C)C(=O)CSc2nc3ccccc3s2)c1
  . | . | . | 1
(5) CN(CC(=O)Nc1cccc(F)c1)C(=O)CSc1nc2ccccc2s1
  61* | . | . | 2
(6) CCC(=O)N(C)C[C@H]1Oc2cc(C#CC3CC3)ccc2S(=O)(=O)N([C@H](C)CO)C[C@@H]1C
  -5 | -1 | 30 | 0
(13) C[C@@H]1CN([C@@H](C)CO)C(=O)Cc2cc(NC(=O)Cc3cn(C)c4ccccc34)ccc2O[C@@H]1CN(C)S(=O)(=O)c1ccccc1
  -10 | 0 | -6 | 0

# Continuation.
# Second line of a record: DENV2 CPE | Cneo AK release | Yeast UUG start | E-sel inducer
(31) C[C@@H]1CN([C@H](C)CO)C(=O)c2cc(NS(=O)(=O)c3ccccc3)ccc2O[C@@H](C)CCCCO[C@H]1CN(C)Cc1ccc(C(=O)O)cc1
  ? | 1 | 2 | 0
(32) C[C@H]1CN([C@@H](C)CO)C(=O)c2cc(NC(=O)Nc3cccc4ccccc34)ccc2O[C@H]1CN(C)S(=O)(=O)c1ccccc1
  -3 | -4 | 1 | 1
(33) CCNC(=O)C[C@@H]1CC[C@H]2[C@H](COc3ccc(NC(=O)Nc4cccc(OC)c4)cc3C(=O)N2C)O1
  2 | -2 | 2 | 0
(34) O=C(c1cccnc1)N1CCCCN2[C@H](CO)[C@@H](c3ccc(C#Cc4cccnc4)cc3)[C@H]2C1
  25* | 0 | -18 | 0
(35) O=C(c1cccnc1)N1CCCCN2[C@H](C1)[C@H](c1ccc(C#Cc3cccnc3)cc1)[C@@H]2CO
  10 | -1 | -9 | 0
(36) O=C(COC(=O)c1ccc(-c2ccc([N+](=O)[O-])cc2)o1)NC(=O)NC12CC3CC(CC(C3)C1)C2
  -4 | . | . | 149*
(37) O=C(COC(=O)c1ccc(-c2ccc([N+](=O)[O-])cc2)o1)NC(=O)NC1CCCCC1
  -5 | 3 | -12 | 0
(38) Cc1ccc(-c2ccc([C@@H]3[C@@H](CO)N4C(=O)CN(C(=O)Nc5cccc(F)c5)C[C@H]34)cc2)cc1
  -1 | . | . | 0
(39) OC[C@H]1[C@H](c2ccc(-c3ccccc3)cc2)[C@H]2CN(CCC(F)(F)F)CCCCN21
  10 | 2 | 1 | 0
(40) COc1ccccc1C#Cc1ccc([C@@H]2[C@H]3CN(CCC(F)(F)F)CCCCN3[C@H]2CO)cc1
  -12 | 81* | 23 | 0
(41) CN(C)C(=O)c1ccc(-c2ccc([C@H]3[C@H]4CN(CCC(F)(F)F)CCCCN4[C@H]3CO)cc2)cc1
  ? | 85* | 21 | 0
(42) Cc1cc2c(=O)n(C)c(SCC(=O)Nc3cccc(F)c3)nc2s1
  2 | 0 | -9 | .
(43) CC(=O)Nc1ccc(NC(=O)CSc2ncc(C(=O)Nc3ccc(F)cc3)c(=O)n2C)cc1
  30* | -4 | -19 | .
(44) CC(=O)Nc1cccc(NC(=O)CSc2ncc(C(=O)Nc3ccc(F)cc3)c(=O)n2C)c1
  -4 | -2 | 4 | 0
(45) Cc1cc2c(=O)n(C)c(SCC(=O)Nc3ccc(F)cc3)nc2s1
  37* | 0 | -7 | -1
(46) C[C@H]1CCCCO[C@H](CN(C)C(=O)Nc2ccc(C(F)(F)F)cc2)[C@@H](C)CN([C@@H](C)CO)C(=O)c2cc(NS(=O)(=O)c3cccs3)ccc2O1
  -19 | 0 | 5 | 1

# Results in sequence from above.
# Yeast UUG start, compounds 35–42: -9, ., -12, ., 1, 23, 21, -9
